Measurements: PubChem BioAssay (EPA / NIEHS)
The list shows a part of the results, in another mix than the full data. The source made the active and inactive calls. The calls were made as follows: active = hit-call score of the fitted dose curve at least 0.9, where 1 is the maximum; inactive = score below 0.9.

Amino acid sequences for entries named in this document (tags omitted).
UniProt P19838, whole entry: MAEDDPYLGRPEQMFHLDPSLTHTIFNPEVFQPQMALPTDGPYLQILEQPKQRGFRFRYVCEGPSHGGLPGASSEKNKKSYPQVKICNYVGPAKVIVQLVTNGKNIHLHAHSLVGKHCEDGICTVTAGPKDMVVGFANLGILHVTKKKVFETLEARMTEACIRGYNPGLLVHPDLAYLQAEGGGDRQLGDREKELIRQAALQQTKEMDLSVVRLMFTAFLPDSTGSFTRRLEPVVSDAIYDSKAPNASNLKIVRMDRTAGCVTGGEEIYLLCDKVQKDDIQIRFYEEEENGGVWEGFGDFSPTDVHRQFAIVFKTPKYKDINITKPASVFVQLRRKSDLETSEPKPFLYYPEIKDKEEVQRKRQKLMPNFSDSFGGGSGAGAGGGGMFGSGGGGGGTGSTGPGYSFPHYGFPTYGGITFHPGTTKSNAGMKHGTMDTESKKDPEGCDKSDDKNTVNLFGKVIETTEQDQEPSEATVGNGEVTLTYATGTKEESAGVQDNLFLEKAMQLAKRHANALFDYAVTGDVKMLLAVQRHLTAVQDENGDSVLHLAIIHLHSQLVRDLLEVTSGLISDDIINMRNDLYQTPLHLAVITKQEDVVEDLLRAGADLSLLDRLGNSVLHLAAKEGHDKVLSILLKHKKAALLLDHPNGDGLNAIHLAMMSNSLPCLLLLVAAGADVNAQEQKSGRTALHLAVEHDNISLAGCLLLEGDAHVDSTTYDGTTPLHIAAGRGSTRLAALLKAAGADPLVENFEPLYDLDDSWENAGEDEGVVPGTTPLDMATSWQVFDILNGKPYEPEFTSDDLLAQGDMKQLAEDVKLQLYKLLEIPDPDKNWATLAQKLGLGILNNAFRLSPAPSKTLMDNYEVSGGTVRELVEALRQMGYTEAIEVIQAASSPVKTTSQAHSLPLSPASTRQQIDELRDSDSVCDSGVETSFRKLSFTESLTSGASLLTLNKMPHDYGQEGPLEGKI

Key:
Settings in all cases: actives raise or lower the signal; mRNA level, 48 h
[1] = read-out: Insulin Like Growth Factor 1 (IGF1), IGF1 (gene 3479); experiment: LTEA_HepaRG_IGF1: Life Technologies and Expression Analysis (LTEA) Assay for Insulin Like Growth Factor 1 (IGF1) using HepaRG (AID 2283506)
Summary of the method: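 HepaRG, plated 48 h, then switched to serum-free induction media; test chemical 8-pt half-log from 100 uM (0.5% DMSO), duplicate, 48 h. Lysis in RLT, TaqMan qRT-PCR, norm. ACTB/GAPDH/POLR2A. Bidirectional fit vs DMSO.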

[2] = read-out: Intercellular Adhesion Molecule 1 (ICAM1), ICAM1 (gene 3383); experiment: LTEA_HepaRG_ICAM1: Life Technologies and Expression Analysis (LTEA) Assay for Intercellular Adhesion Molecule 1 (ICAM1) using HepaRG (AID 2283507)
Summary of the method: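 ICAM1 transcript levels measured by qRT-PCR, normalized to three housekeeping genes (ACTB, GAPDH, POLR2A), after 48 h chemical exposure of HepaRG cells. Duplicate eight-point half-log series from 100 uM in 0.5% DMSO; gain or loss fitted against vehicle.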

[3] = read-out: Insulin-like growth factor-binding protein 1 (IGFBP1), IGFBP1 (gene 3484); experiment: LTEA_HepaRG_IGFBP1: Life Technologies and Expression Analysis (LTEA) Assay for Insulin-like growth factor-binding protein 1 (IGFBP1) using HepaRG (AID 2283508)
Summary of the method: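 Read-out is qRT-PCR transcript level normalized to three housekeeping genes, fitted in both directions against 0.5% DMSO. Differentiated HepaRG cells received eight half-log concentrations (top 100 uM) in duplicate for 48 h in serum-free induction medium.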

[4] = read-out: Interleukin 6 (IL6), IL6 (gene 3569); experiment: LTEA_HepaRG_IL6: Life Technologies and Expression Analysis (LTEA) Assay for Interleukin 6 (IL6) using HepaRG (AID 2283509)
Summary of the method: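 HepaRG, ~100,000 cells/well, 48 h pre-culture; serum-free induction medium; cmpd 8-pt half-log from 100 uM, 0.5% DMSO, duplicate, 48 h. Lysis in RLT, TaqMan qRT-PCR; gain or loss vs DMSO.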

[5] = read-out: Interleukin 6 Receptor (IL6R), IL6R (gene 3570); experiment: LTEA_HepaRG_IL6R: Life Technologies and Expression Analysis (LTEA) Assay for Interleukin 6 Receptor (IL6R) using HepaRG (AID 2283510)
Summary of the method: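 Readout is IL6R transcript level by TaqMan qRT-PCR, normalized to three housekeeping genes and fitted bidirectionally against 0.5% DMSO controls. Human HepaRG cells received chemicals for 48 h in serum-free induction medium, highest concentration 100 uM.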

[6] = read-out: Potassium channel subfamily K member 1 (KCNK1), KCNK1 (gene 3775); experiment: LTEA_HepaRG_KCNK1: Life Technologies and Expression Analysis (LTEA) Assay for Potassium channel subfamily K member 1 (KCNK1) using HepaRG (AID 2283511)
Summary of the method: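 Gain or loss of KCNK1 mRNA is the read-out, quantified by qRT-PCR against three housekeeping genes after 48 h chemical treatment of human HepaRG liver cells. Concentrations ran from 100 uM downward in half-log steps, vehicle 0.5% DMSO.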

[7] = read-out: Keratin 19 (KRT19), KRT19 (gene 3880); experiment: LTEA_HepaRG_KRT19: Life Technologies and Expression Analysis (LTEA) Assay for Keratin 19 (KRT19) using HepaRG (AID 2283512)
[8] = read-out: JUN Transcription Factor, JUN (gene 3725); experiment: LTEA_HepaRG_JUN: Life Technologies and Expression Analysis (LTEA) Assay for JUN Transcription Factor using HepaRG (AID 2283513)
Summary of the method: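 Cells plated 48 h, medium switched to serum-free induction medium, then dosed 48 h (100 uM top, half-log dilutions, 0.5% DMSO). RNA isolated; JUN measured by qRT-PCR against three housekeeping genes; gain or loss fitted relative to DMSO.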

[9] = read-out: Lipase C (LIPC), LIPC (gene 3990); experiment: LTEA_HepaRG_LIPC: Life Technologies and Expression Analysis (LTEA) Assay for Lipase C (LIPC) using HepaRG (AID 2283514)
Summary of the method: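 Read-out is LIPC transcript level by TaqMan qRT-PCR, normalized to three housekeeping genes, after 48 h chemical treatment of human HepaRG liver cells. Curves span eight concentrations topping at 100 uM; activity in either direction scored relative to 0.5% DMSO.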

[10] = read-out: Lipoprotein lipase (LPL), LPL (gene 4023); experiment: LTEA_HepaRG_LPL: Life Technologies and Expression Analysis (LTEA) Assay for Lipoprotein lipase (LPL) using HepaRG (AID 2283515)
Summary of the method: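 Read-out is LPL transcript level by qRT-PCR, normalized to three housekeeping genes and fitted bidirectionally against the DMSO control. Human HepaRG cells received chemicals for 48 h at up to 100 uM.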

[11] = read-out: MicroRNA 122 (MIR122), gene 406906; experiment: LTEA_HepaRG_MIR122: Life Technologies and Expression Analysis (LTEA) Assay for MicroRNA 122 (MIR122) using HepaRG (AID 2283516); also: the transcript read is the microRNA miR-122
Summary of the method: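 HepaRG plated 48 h, switched to serum-free induction medium, then treated in duplicate for 48 h (100 uM top, half-log steps, 0.5% DMSO vehicle). RNA isolated, qRT-PCR performed, concentration-response fitted both directions relative to DMSO.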

[12] = read-out: matrix metalloproteinase-10 (MMP10), MMP10 (gene 4319); experiment: LTEA_HepaRG_MMP10: Life Technologies and Expression Analysis (LTEA) Assay for matrix metalloproteinase-10 (MMP10) using HepaRG (AID 2283517)
Summary of the method: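 Gain or loss of MMP10 mRNA is fitted relative to the 0.5% DMSO vehicle. The human hepatic line HepaRG receives a 48-hour serum-free exposure, in duplicate, with a maximum concentration of 100 uM.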

MYC, MYC (gene 4609) = experiment: LTEA_HepaRG_MYC: Life Technologies and Expression Analysis (LTEA) Assay for MYC using HepaRG (AID 2283518)
Summary of the method: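 MYC transcript changes, up or down relative to 0.5% DMSO, from TaqMan qRT-PCR normalized to three housekeeping genes. Human HepaRG cultures received chemicals for 48 h at eight half-log concentrations up to 100 uM, in duplicate.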

[13] = read-out: matrix metalloproteinase-3 (MMP3), MMP3 (gene 4314); experiment: LTEA_HepaRG_MMP3: Life Technologies and Expression Analysis (LTEA) Assay for matrix metalloproteinase-3 (MMP3) using HepaRG (AID 2283519)
Summary of the method: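 HepaRG, human; 48 h dosing, 8 conc. (max 100 uM, half-log), duplicate, 0.5% DMSO. Readout: MMP3 transcript by Fluidigm TaqMan qRT-PCR, ACTB/GAPDH/POLR2A-normalised. Gain or loss fitted vs DMSO.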

[14] = read-out: Paternally Expressed 10 (PEG10), PEG10 (gene 23089); experiment: LTEA_HepaRG_PEG10: Life Technologies and Expression Analysis (LTEA) Assay for Paternally Expressed 10 (PEG10) using HepaRG (AID 2283520)
Summary of the method: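 HepaRG, 48 h post-plating → serum-free induction medium → 48 h chemical exposure (duplicate, 8-pt, max 100 uM, half-log, 0.5% DMSO) → lysis in RLT → TaqMan qRT-PCR for PEG10, ACTB/GAPDH/POLR2A normalisation.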

[15] = read-out: Nuclear factor NF-kappa-B p105 subunit (Homo sapiens) (UniProt P19838); experiment: LTEA_HepaRG_NFKB1: Life Technologies and Expression Analysis (LTEA) Assay for Nuclear Factor Kappa B Subunit 1 (NFKB1) using HepaRG (AID 2283521);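 also: differentiated human HepaRG liver cells in serum-free induction medium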
Summary of the method: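 Human HepaRG cells receive eight half-log concentrations, highest 100 uM, for 48 h. NFKB1 expression is then quantified by qRT-PCR and analysed for up- or down-regulation relative to 0.5% DMSO vehicle.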

[16] = read-out: Protein phosphatase 2A (PPP2R4), PTPA (gene 5524); experiment: LTEA_HepaRG_PPP2R4: Life Technologies and Expression Analysis (LTEA) Assay for Protein phosphatase 2A (PPP2R4) using HepaRG (AID 2283522)
Summary of the method: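 Readout is PPP2R4 transcript level by microfluidic qRT-PCR after 48 h chemical treatment of human HepaRG liver cells. Concentrations spanned 100 uM downward in half-log steps; gain or loss of signal was fitted relative to DMSO.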

[17] = read-out: Phosphatase and tensin (PTEN), PTEN (gene 5728); experiment: LTEA_HepaRG_PTEN: Life Technologies and Expression Analysis (LTEA) Assay for Phosphatase and tensin (PTEN) using HepaRG (AID 2283523)
Summary of the method: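 Read-out is PTEN transcript level by multiplexed TaqMan qRT-PCR after 48 h chemical treatment of human HepaRG cultures in serum-free induction medium. Concentrations spanned 100 uM downward in half-log steps, 0.5% DMSO throughout; activity fitted in both directions against vehicle.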

[18] = read-out: solute carrier (SLC22A1), SLC22A1 (gene 6580); experiment: LTEA_HepaRG_SLC22A1: Life Technologies and Expression Analysis (LTEA) Assay for solute carrier (SLC22A1) using HepaRG (AID 2283524)
Summary of the method: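 HepaRG (human liver line), 48 h dosing in serum-free induction medium; 8 conc., half-log down from 100 uM, 0.5% DMSO vehicle, duplicates. Endpoint: SLC22A1 mRNA, qRT-PCR, housekeeping-normalized; gain/loss fit vs DMSO.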

[19] = read-out: Pyruvate Dehydrogenase Kinase 4 (PDK4), PDK4 (gene 5166); experiment: LTEA_HepaRG_PDK4: Life Technologies and Expression Analysis (LTEA) Assay for Pyruvate Dehydrogenase Kinase 4 (PDK4) using HepaRG (AID 2283525)
Summary of the method: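 In this multiplexed human HepaRG expression assay, cells are treated 48 h with test chemicals across an eight-point range starting at 100 uM. PDK4 mRNA changes, normalized to ACTB/GAPDH/POLR2A, are fitted in both directions relative to vehicle.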

Measured: outcome

O=[N+]([O-])c1cccc([N+](=O)[O-])c1
inactive: all assays above

Cc1cccc([N+](=O)[O-])c1[N+](=O)[O-]
inactive: all assays above

Cc1c([N+](=O)[O-])cccc1[N+](=O)[O-]
inactive: all assays above

CC(C)OP(C)(=O)OC(C)C
inactive: all assays above

Cc1ccc([N+](=O)[O-])cc1[N+](=O)[O-]
inactive: all assays above
